How the values were obtained:
[1] = molecular target: T1, Mu-type opioid receptor (Cavia porcellus, UniProt P97266); experiment: Displacement of [3H]DAMGO from mu opioid receptor of guinea pig brain membrane
[2] = molecular target: Opioid receptors; mu & delta (UniProt P41143+P35372); experiment: Ratio of IC50 against mu opioid to IC50 against delta opioid receptor
Summary of the method: (§1)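 Electrically stimulated tissue in Krebs bicarbonate, 37 °C, 95% O2/5% CO2, 0.1 Hz, supramaximal voltage. MVD used male ICR mouse vas deferens, Mg-free buffer, 0.5 g tension, 2.0 ms pulses. GPI used male Hartley guinea pig ileum myenteric plexus strips, 1 g tension, 0.4 ms pulses. Cumulative agonist doses, 3 min each. IC50 from Hill fit to mean inhibition data, 2–4 tissues.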

The chains behind the UniProt entries cited, without tags or fusion partners.
UniProt P97266, whole entry: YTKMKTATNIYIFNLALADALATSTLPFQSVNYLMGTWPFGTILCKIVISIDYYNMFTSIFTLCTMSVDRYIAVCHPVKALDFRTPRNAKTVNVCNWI
UniProt P41143, whole entry, looked up: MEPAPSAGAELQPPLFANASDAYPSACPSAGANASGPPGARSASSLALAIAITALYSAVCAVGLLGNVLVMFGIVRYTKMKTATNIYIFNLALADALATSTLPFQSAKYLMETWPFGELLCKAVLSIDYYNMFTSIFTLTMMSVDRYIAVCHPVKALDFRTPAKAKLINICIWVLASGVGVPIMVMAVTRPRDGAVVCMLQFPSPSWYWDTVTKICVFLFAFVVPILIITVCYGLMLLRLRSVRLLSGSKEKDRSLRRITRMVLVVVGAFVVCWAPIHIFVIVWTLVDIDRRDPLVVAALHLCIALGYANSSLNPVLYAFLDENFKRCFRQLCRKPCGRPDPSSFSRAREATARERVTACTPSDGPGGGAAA
UniProt P35372, whole entry, looked up: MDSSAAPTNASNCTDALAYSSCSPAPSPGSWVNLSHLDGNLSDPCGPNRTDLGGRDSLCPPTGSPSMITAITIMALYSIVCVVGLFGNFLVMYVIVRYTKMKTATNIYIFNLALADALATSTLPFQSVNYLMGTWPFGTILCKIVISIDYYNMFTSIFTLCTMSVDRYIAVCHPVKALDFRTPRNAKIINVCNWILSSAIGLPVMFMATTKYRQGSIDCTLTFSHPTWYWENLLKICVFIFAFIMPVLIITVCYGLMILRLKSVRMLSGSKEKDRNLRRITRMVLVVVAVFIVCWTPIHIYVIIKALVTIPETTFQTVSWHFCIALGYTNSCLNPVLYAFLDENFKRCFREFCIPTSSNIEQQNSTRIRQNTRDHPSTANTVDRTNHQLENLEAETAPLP

[3] = molecular target: T1, Mu-type opioid receptor; experiment: Inhibitory concentration of compound against mu opioid receptor in guinea pig ileum assay; type: tissue-based; summary of the method: as §1

Structure (SMILES)	Ki [1] [nM]	Ratio [2]	IC50 [3] [nM]
CC1(C)SSC[C@H](NC(=O)[C@H](N)Cc2ccc(O)cc2)C(=O)N[C@@H](Cc2ccccc2)C(=O)N[C@@H]1C(=O)O	> 10000		
CC1(C)SSC[C@H](NC(=O)[C@@H](N)Cc2ccc(O)cc2)C(=O)N[C@@H](Cc2ccccc2)C(=O)N[C@@H]1C(=O)O	52	110	460

Reference: ChEMBL document CHEMBL1127294, “Development of a model for the delta opioid receptor pharmacophore. 1. Conformationally restricted Tyr1 replacements in the cyclic delta receptor selective tetrapeptide Tyr-c[D-Cys-Phe-D-Pen]OH (JOM-13)” (J Med Chem, 1994)
